Chains of the proteins cited; added tags and fusions are not shown.
UniProt P33535, whole entry: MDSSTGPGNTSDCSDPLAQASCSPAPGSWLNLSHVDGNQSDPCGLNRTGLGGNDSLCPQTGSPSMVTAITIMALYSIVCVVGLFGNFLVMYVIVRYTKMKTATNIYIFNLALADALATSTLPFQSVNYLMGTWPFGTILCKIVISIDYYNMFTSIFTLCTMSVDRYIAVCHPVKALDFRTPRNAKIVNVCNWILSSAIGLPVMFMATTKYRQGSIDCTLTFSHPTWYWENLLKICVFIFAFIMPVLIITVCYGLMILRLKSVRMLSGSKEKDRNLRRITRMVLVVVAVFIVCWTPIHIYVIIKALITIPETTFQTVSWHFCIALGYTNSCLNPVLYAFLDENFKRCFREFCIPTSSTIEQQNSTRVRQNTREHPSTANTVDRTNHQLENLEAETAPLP

According to ChEMBL document CHEMBL4673223, “Synthesis, Biological, and Structural Explorations of New Zwitterionic Derivatives of 14- O-Methyloxymorphone, as Potent μ/δ Opioid Agonists and Peripherally Selective Antinociceptives” (J Med Chem, 2019):

Molecular target: Mu-type opioid receptor (Rattus norvegicus, UniProt P33535)
Test: Displacement of [3H]DAMGO from mu opioid receptor in rat brain membranes incubated for 45 mins by liquid scintillation counting method
Format: cell membranes, Membrane
Method in brief: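 Rat brain membranes (cerebella removed; 0.3–0.5 mg protein) in 50 mM Tris-HCl, pH 7.4, were incubated 45 min at 35 °C with 1 nM [3H]DAMGO (MOR) or 0.5 nM [3H][Ile5,6]deltorphin II (DOR) plus varied test concentrations. Nonspecific binding was set with 10 μM naloxone. Samples were GF/C filtered, washed and scintillation counted. Ki was obtained by Cheng–Prusoff; duplicates, 3–4 experiments.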

Compound | Ki [nM]
CO[C@@]12CC[C@@H](N[C@@H](C)C(=O)O)[C@@H]3Oc4c(O)ccc5c4[C@@]31CCN(C)[C@@H]2C5 | 1.9
CO[C@@]12CC[C@H](N[C@@H](C)C(=O)O)[C@@H]3Oc4c(O)ccc5c4[C@@]31CCN(C)[C@@H]2C5 | 0.77
